Earlier results in patent US6599913B1, “Treating allergic and inflammatory conditions” (Schering Corporation, priority 2001, dated 2003).

Target: T1, rat OATP1 (Rattus norvegicus, UniProt P46720)
T1 sequence (P46720 1-670): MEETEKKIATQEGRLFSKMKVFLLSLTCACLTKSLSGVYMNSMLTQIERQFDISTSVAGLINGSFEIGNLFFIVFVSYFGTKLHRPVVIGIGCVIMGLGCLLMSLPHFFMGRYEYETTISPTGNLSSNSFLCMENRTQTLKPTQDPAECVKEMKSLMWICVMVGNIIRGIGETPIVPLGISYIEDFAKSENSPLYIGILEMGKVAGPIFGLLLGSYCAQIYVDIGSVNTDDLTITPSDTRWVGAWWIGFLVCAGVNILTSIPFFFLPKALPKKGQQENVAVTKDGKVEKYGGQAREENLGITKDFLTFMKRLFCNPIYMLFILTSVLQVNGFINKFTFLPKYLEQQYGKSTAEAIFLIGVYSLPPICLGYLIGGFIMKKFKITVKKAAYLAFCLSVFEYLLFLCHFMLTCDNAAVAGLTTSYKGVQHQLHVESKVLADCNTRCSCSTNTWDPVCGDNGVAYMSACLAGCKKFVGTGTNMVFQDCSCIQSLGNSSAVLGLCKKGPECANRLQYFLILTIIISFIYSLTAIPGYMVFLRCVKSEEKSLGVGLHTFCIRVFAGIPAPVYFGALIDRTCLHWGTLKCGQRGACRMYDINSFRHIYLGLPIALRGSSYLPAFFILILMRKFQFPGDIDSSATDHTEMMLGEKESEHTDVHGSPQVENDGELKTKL
Settings: at 10 μM; cited from earlier work

**Q.** Which “Inhibition of rat OATP1” value does the source give for corticosterone sulfate here?
**A.** effectively inhibits
